Measurements: US10227346B2, “Methyl- and trifluoromethyl-substituted pyrrolopyridine modulators of RORC2 and methods of use therof” (Pfizer Inc., priority 2014, dated 2019)

Tested on: IL-17 production from human Th17 cells;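 note: purified human CD4+ T cells activated with anti-CD3 plus anti-CD28 and a Th17-inducing cytokine cocktail, with compound at serial concentrations versus no compound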
Assay: IL-17 production from human Th17 cells;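 note: purified human CD4+ T cells activated with anti-CD3 plus anti-CD28 and a Th17-inducing cytokine cocktail, with compound at serial concentrations versus no compound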
Assay type: cell-based
Settings: CD4+ T, 144 h

In order of falling IC50:
1. Cc1c(NC(=O)c2cc(O)cc(C#N)c2)cnc2c1c(C1CCN(C(=O)C3CCCC3)CC1)cn2C [Example 53, 3-cyano-N-(3-(1-(cyclopentanecarbonyl)piperidin-4-yl)-1,4-dimethyl-1H-pyrrolo[2,3-b]pyridin-5-yl)-5-hydroxybenzamide]  121 nM
2. Cc1c(NC(=O)c2cccc(C#N)c2)cnc2c1c([C@@H]1CCN(C(=O)CC3CC3)C[C@@H]1C)cn2C [Example 83, 3-cyano-N-(3-((3R,4R)-1-(2-cyclopropylacetyl)-3-methylpiperidin-4-yl)-1,4-dimethyl-1H-pyrrolo[2,3-b]pyridin-5-yl)benzamide]  70.5 nM
3. COCCOc1cc(C#N)cc(C(=O)Nc2cnc3c(c(C4CCN(C(=O)C5CCCC5)CC4)cn3C)c2C)c1 [Example 57, 3-cyano-N-(3-(1-(cyclopentanecarbonyl)piperidin-4-yl)-1,4-dimethyl-1H-pyrrolo[2,3-b]pyridin-5-yl)-5-(2-methoxyethoxy)benzamide]  36.4 nM
4. COc1ccc(C(=O)Nc2cnc3c(c([C@@H]4CCN(C(=O)[C@@H](C)C(F)(F)F)[C@@H](C)C4)cn3C)c2C)cc1C#N [Example 94, 3-cyano-N-(1,4-dimethyl-3-((2S,4R)-2-methyl-1-((R)-3,3,3-trifluoro-2-methylpropanoyl)piperidin-4-yl)-1H-pyrrolo[2,3-b]pyridin-5-yl)-4-methoxybenzamide]  22.8 nM
5. Cc1c(NC(=O)c2cccc(C#N)c2)cnc2c1c([C@@H]1CCN(C(=O)[C@@H](C)C(F)(F)F)[C@@H](C)C1)cn2C [Example 92, 3-cyano-N-(1,4-dimethyl-3-((2S,4R)-2-methyl-1-((R)-3,3,3-trifluoro-2-methylpropanoyl)piperidin-4-yl)-1H-pyrrolo[2,3-b]pyridin-5-yl)benzamide]  22.3 nM
6. Cc1c(NC(=O)c2cccc(C#N)c2)cnc2c1c([C@@H]1CCN(C(=O)[C@@H](C)C(F)(F)F)C[C@@H]1C)cn2C [Example 88, 3-cyano-N-(1,4-dimethyl-3-((3R,4R)-3-methyl-1-((R)-3,3,3-trifluoro-2-methylpropanoyl)piperidin-4-yl)-1H-pyrrolo[2,3-b]pyridin-5-yl)benzamide]  19 nM
7. Cc1c(NC(=O)c2cccc(C#N)c2)cnc2c1c([C@@H]1CCN(C(=O)[C@H](C)C(F)(F)F)C[C@@H]1C)cn2C [Example 89, 3-cyano-N-(1,4-dimethyl-3-((3R,4R)-3-methyl-1-((S)-3,3,3-trifluoro-2-methylpropanoyl)piperidin-4-yl)-1H-pyrrolo[2,3-b]pyridin-5-yl)benzamide]  16.6 nM
8. Cc1c(NC(=O)c2cccc(C#N)c2)cnc2c1c([C@@H]1CCN(C(=O)[C@H](C)C(F)(F)F)[C@@H](C)C1)cn2C [Example 91, 3-cyano-N-(1,4-dimethyl-3-((2S,4R)-2-methyl-1-((S)-3,3,3-trifluoro-2-methylpropanoyl)-piperidin-4-yl)-1H-pyrrolo[2,3-b]pyridin-5-yl)benzamide]  16.2 nM
9. Cc1c(NC(=O)c2cccc(C#N)c2)cnc2c1c([C@@H]1CCN(C(=O)C(C)C)C[C@@H]1C)cn2C [Example 85, 3-cyano-N-(3-((3R,4R)-1-isobutyryl-3-methylpiperidin-4-yl)-1,4-dimethyl-1H-pyrrolo[2,3-b]pyridin-5-yl)benzamide]  15.5 nM
10. COc1ccc(C(=O)Nc2cnc3c(c([C@@H]4CCN(C(=O)C5CCCC5)C(C)(C)C4)cn3C)c2C)cc1C#N [Example 60, (R)-3-cyano-N-(3-(1-(cyclopentanecarbonyl)-2,2-dimethylpiperidin-4-yl)-1,4-dimethyl-1H-pyrrolo[2,3-b]pyridin-5-yl)-4-methoxybenzamide]  15 nM
11. CC(C)C(=O)N1CC[C@@H](c2cn(C)c3ncc(NC(=O)c4cccc(C#N)c4)c(C(F)(F)F)c23)CC1(C)C [Example 66, (R)-3-cyano-N-(3-(1-isobutyryl-2,2-dimethylpiperidin-4-yl)-1-methyl-4-(trifluoromethyl)-1H-pyrrolo[2,3-b]pyridin-5-yl)benzamide]  13.4 nM
12. COc1ccc(C(=O)Nc2cnc3c(c([C@@H]4CCN(C(=O)[C@H](C)C(F)(F)F)[C@@H](C)C4)cn3C)c2C)cc1C#N [Example 93, 3-cyano-N-(1,4-dimethyl-3-((2S,4R)-2-methyl-1-((S)-3,3,3-trifluoro-2-methylpropanoyl)piperidin-4-yl)-1H-pyrrolo[2,3-b]pyridin-5-yl)-4-methoxybenzamide]  13.4 nM
13. COCCOc1ccc(C(=O)Nc2cnc3c(c([C@@H]4CCN(C(=O)C5CCCC5)C[C@@H]4C)cn3C)c2C)cc1C#N [Example 87, 3-cyano-N-(3-((3R,4R)-1-(cyclopentanecarbonyl)-3-methylpiperidin-4-yl)-1,4-dimethyl-1H-pyrrolo[2,3-b]pyridin-5-yl)-4-(2-methoxyethoxy)benzamide]  12.6 nM
14. COc1cc(C#N)cc(C(=O)Nc2cnc3c(c(C4CCN(C(=O)C5CCCC5)CC4)cn3C)c2C)c1 [Example 52, 3-cyano-N-(3-(1-(cyclopentanecarbonyl)piperidin-4-yl)-1,4-dimethyl-1H-pyrrolo[2,3-b]pyridin-5-yl)-5-methoxybenzamide]  12 nM
15. COc1ccc(C(=O)Nc2cnc3c(c([C@@H]4CCN(C(=O)[C@H](C)C(C)(C)C)C(C)(C)C4)cn3C)c2C)cc1C#N [Example 69, 3-cyano-N-(3-((R)-2,2-dimethyl-1-((R)-2,3,3-trimethylbutanoyl)piperidin-4-yl)-1,4-dimethyl-1H-pyrrolo[2,3-b]pyridin-5-yl)-4-methoxybenzamide]  11.4 nM
16. COc1cc(C#N)cc(C(=O)Nc2cnc3c(c(C4CCN(C(=O)[C@H](C)C(C)(C)C)CC4)cn3C)c2C)c1 [Example 39, (R)-3-cyano-N-(1,4-dimethyl-3-(1-(2,3,3-trimethylbutanoyl)piperidin-4-yl)-1H-pyrrolo[2,3-b]pyridin-5-yl)-5-methoxybenzamide]  11.2 nM
17. COc1cc(C#N)cc(C(=O)Nc2cnc3c(c([C@@H]4CCN(C(=O)C5CCCC5)C(C)(C)C4)cn3C)c2C)c1 [Example 58, (R)-3-cyano-N-(3-(1-(cyclopentanecarbonyl)-2,2-dimethylpiperidin-4-yl)-1,4-dimethyl-1H-pyrrolo[2,3-b]pyridin-5-yl)-5-methoxybenzamide]  9.3 nM
18. CC(C)C(=O)N1CC[C@@H](c2cn(C)c3ncc(NC(=O)c4cccc(C#N)c4)c(C(F)(F)F)c23)[C@@H](C)C1 [Example 80, 3-cyano-N-(3-((3R,4R)-1-isobutyryl-3-methylpiperidin-4-yl)-1-methyl-4-(trifluoromethyl)-1H-pyrrolo[2,3-b]pyridin-5-yl)benzamide]  9.3 nM
19. COc1ccc(C#N)cc1C(=O)Nc1cnc2c(c(C3CCN(C(=O)[C@H](C)C(C)(C)C)CC3)cn2C)c1C [Example 40, (R)-5-cyano-N-(1,4-dimethyl-3-(1-(2,3,3-trimethylbutanoyl)piperidin-4-yl)-1H-pyrrolo[2,3-b]pyridin-5-yl)-2-methoxybenzamide]  7.9 nM
20. COCCOc1ccc(C(=O)Nc2cnc3c(c(C4CCN(C(=O)[C@H](C)C(C)(C)C)CC4)cn3C)c2C)cc1C#N [Example 43, (R)-3-cyano-N-(1,4-dimethyl-3-(1-(2,3,3-trimethylbutanoyl)piperidin-4-yl)-1H-pyrrolo[2,3-b]pyridin-5-yl)-4-(2-methoxyethoxy)benzamide]  6.4 nM
21. Cc1c(NC(=O)c2cccc(C#N)c2)cnc2c1c([C@@H]1CCN(C(=O)C3CCCC3)C[C@@H]1C)cn2C [Example 84, 3-cyano-N-(3-((3R,4R)-1-(cyclopentanecarbonyl)-3-methylpiperidin-4-yl)-1,4-dimethyl-1 H-pyrrolo[2,3-b]pyridin-5-yl)benzamide]  6 nM
22. Cc1c(NC(=O)c2cccc(C#N)c2)cnc2c1c([C@@H]1CCN(C(=O)[C@H](C)C(C)(C)C)C(C)(C)C1)cn2C [Example 68, 3-cyano-N-(3-((R)-2,2-dimethyl-1-((R)-2,3,3-trimethylbutanoyl)piperidin-4-yl)-1,4-dimethyl-1H-pyrrolo[2,3-b]pyridin-5-yl)benzamide]  5.3 nM
23. Cc1c(NC(=O)c2cccc(C#N)c2)cnc2c1c([C@@H]1CCN(C(=O)C3CCCC3)C(C)(C)C1)cn2C [Example 71, (R)-3-cyano-N-(3-(1-(cyclopentanecarbonyl)-2,2-dimethylpiperidin-4-yl)-1,4-dimethyl-1H-pyrrolo[2,3-b]pyridin-5-yl)benzamide]  4.8 nM
24. Cc1c(NC(=O)c2cccc(C#N)c2)cnc2c1c([C@@H]1CCN(C(=O)C(C)C)C(C)(C)C1)cn2C [Example 72, (R)-3-cyano-N-(3-(1-isobutyryl-2,2-dimethylpiperidin-4-yl)-1,4-dimethyl-1H-pyrrolo[2,3-b]pyridin-5-yl)benzamide]  4.8 nM
25. COc1ccc(C(=O)Nc2cnc3c(c([C@@H]4CCN(C(=O)C(C)C)C(C)(C)C4)cn3C)c2C(F)(F)F)cc1C#N [Example 67, (R)-3-cyano-N-(3-(1-isobutyryl-2,2-dimethylpiperidin-4-yl)-1-methyl-4-(trifluoromethyl)-1H-pyrrolo[2,3-b]pyridin-5-yl)-4-methoxybenzamide]  4.2 nM
26. COc1ccc(C(=O)Nc2cnc3c(c(C4[C@@H]5CC[C@H]4CN(C(=O)C(C)C)C5)cn3C)c2C(F)(F)F)cc1C#N (stereo partly drawn) [Example 78, 3-cyano-N-(3-((1R,5S,8r)-3-isobutyryl-3-azabicyclo[3.2.1]octan-8-yl)-1-methyl-4-(trifluoromethyl)-1H-pyrrolo[2,3-b]pyridin-5-yl)-4-methoxybenzamide]  4 nM
27. COc1ccc(C(=O)Nc2cnc3c(c([C@@H]4CCN(C(=O)C(C)C)C(C)(C)C4)cn3C)c2C)cc1C#N [Example 70, (R)-3-cyano-N-(3-(1-isobutyryl-2,2-dimethylpiperidin-4-yl)-1,4-dimethyl-1H-pyrrolo[2,3-b]pyridin-5-yl)-4-methoxybenzamide]  3.5 nM
28. C[C@H]1CN(C(=O)C2CCCC2)CC[C@H]1c1cn(C)c2ncc(NC(=O)c3cccc(C#N)c3)c(C(F)(F)F)c12 [Example 81, 3-cyano-N-(3-((3R,4R)-1-(cyclopentane-carbonyl)-3-methylpiperidin-4-yl)-1-methyl-4-(trifluoro-methyl)-1H-pyrrolo[2,3-b]pyridin-5-yl)benzamide]  3.3 nM
